US20130102662A1, “USE OF INDUCIBLE NITRIC OXIDE SYNTHASE INHIBITORS AND NITRIC OXIDE […] INHIBIT POST-TRAUMATIC IMMUNODEPRESSION” (University of Pittsburgh - of the Commonwealth System of …, priority 2011, published 2013)

System: splenocytes
Conditions: C57BL/6 mice, pseudofracture trauma, 1400 W 5 mg/kg intraperitoneally, 48 hours, concanavalin A 2.5 μg/ml; vs baseline controls (FIG. 3)

## CC(=N)NCc1cccc(CN)c1 [1400 W, N-(3-(Aminomethyl)benzyl)acetamidine]
  Concanavalin A stimulated splenocyte proliferative responses following trauma: not significantly reduced
